Experimental data from patent US8211916B2.

The chains behind the UniProt entries cited, without tags or fusion partners. Residues count along the entry.
UniProt Q63380, 1-617: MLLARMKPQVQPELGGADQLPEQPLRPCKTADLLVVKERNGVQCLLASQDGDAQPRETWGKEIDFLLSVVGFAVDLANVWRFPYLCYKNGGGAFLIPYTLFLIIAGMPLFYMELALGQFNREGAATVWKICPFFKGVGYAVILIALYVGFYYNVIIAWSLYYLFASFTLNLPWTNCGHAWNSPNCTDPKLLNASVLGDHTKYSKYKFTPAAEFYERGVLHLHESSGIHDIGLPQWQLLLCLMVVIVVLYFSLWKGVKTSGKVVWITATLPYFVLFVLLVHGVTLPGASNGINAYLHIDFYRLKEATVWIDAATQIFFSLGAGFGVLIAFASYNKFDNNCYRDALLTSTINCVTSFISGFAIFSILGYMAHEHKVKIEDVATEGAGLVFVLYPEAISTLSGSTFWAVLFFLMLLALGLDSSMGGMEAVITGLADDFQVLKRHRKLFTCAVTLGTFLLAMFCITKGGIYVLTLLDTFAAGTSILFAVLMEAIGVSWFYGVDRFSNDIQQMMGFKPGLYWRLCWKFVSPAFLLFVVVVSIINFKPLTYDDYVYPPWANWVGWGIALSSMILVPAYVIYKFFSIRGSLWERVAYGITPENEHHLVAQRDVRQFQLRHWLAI
UniProt P31652, whole entry: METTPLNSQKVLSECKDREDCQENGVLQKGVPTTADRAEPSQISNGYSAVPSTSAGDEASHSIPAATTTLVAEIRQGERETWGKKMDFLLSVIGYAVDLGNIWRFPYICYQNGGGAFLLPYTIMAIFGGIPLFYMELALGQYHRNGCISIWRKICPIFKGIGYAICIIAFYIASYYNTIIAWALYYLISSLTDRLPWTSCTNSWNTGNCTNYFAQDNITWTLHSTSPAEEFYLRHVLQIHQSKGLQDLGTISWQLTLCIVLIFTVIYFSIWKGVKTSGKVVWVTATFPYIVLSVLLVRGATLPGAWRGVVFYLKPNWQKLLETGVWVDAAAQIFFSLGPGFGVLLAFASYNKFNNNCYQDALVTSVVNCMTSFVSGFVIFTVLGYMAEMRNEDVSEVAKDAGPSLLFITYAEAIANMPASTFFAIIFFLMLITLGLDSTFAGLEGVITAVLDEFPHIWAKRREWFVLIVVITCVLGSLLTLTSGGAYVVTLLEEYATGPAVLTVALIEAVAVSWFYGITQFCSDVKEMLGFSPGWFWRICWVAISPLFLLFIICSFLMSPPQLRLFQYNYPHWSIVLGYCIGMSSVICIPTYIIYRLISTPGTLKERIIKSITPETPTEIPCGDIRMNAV

Tests used:
[1] = molecular target: T1, Norepinephrine (NET) Transporter (Rattus norvegicus, UniProt Q63380); experiment: NET binding, [3H]nisoxetine
T1 construct: and norepinephrine Transporters in Rat Striatum; from tissue

[2] = molecular target: T2, rat SERT (Rattus norvegicus, UniProt P31652); experiment: Rat SERT binding, [3H]citalopram, striatal membranes
T2 construct: from tissue; host or cells: rat striatum (membranes)

## COC(=O)[C@H]1[C@@H](OC(=O)c2ccccc2)C[C@@H]2CC[C@H]1N2C [Cocaine, reference compound]
[1]
  IC50: 3.53 µM
[2]
  IC50: 737 ± 160 nM
